For the assay, the target named is PDGFRβ (Homo sapiens, UniProt P09619). The experiment in a line: In vitro phospho-Tyr751 PDGFRβ ELISA assay (Test (b)). It is filed as cell-based. The conditions noted are these: read-out: IC50 versus phospho-Tyr751 formation in PDGFRβ, MG63 osteosarcoma cells stimulated with PDGFBB. (In general: In an ELISA, binding on a coated surface is turned into a signal by an enzyme label.)

Protein sequences, listed by entry. Tags and fused reporters are not part of them. Residues count along the entry.
UniProt P09619, 33-1106 limits assumed: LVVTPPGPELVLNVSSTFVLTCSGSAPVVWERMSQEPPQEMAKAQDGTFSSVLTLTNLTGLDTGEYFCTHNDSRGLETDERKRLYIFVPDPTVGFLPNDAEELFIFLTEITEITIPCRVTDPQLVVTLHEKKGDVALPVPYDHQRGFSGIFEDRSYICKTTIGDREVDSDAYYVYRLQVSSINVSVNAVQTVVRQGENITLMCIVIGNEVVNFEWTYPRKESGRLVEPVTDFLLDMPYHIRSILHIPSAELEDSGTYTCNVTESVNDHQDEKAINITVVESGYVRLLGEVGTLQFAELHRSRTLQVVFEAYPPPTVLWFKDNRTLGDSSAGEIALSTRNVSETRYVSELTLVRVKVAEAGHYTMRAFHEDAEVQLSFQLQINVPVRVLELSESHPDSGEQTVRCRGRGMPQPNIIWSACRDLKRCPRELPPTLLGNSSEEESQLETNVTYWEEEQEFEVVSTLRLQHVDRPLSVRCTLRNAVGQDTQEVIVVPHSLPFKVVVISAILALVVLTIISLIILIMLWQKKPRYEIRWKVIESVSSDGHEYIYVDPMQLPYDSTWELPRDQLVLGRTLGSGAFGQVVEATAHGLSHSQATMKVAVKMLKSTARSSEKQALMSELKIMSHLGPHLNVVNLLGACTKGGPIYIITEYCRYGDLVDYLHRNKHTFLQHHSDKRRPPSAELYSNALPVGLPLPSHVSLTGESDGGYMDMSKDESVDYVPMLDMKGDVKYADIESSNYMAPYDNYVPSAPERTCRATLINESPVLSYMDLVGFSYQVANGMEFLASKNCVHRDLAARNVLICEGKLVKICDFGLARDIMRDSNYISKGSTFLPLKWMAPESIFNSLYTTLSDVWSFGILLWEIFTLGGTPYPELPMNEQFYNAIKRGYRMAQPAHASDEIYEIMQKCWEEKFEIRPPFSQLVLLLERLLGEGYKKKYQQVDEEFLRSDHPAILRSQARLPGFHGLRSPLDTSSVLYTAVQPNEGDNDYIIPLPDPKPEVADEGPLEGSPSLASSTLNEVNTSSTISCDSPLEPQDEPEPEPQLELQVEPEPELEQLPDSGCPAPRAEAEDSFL

As to `CCc1cc(NC(=O)Cc2ccc(Oc3ccnc4cc(OC)c(OC)cc34)cn2)n[nH]1`, the IC50 is 1 µM.

For orientation: IC50 means the concentration that inhibits the measured activity by half.

Values taken from patent publication US20090076075A1, “QUINOLINE DERIVATIVES” (priority 2006, published 2009).
